# In PubChem BioAssay AID720707 (National Center for Advancing Translational Sciences (NCATS), 2013):
# Chains of the proteins cited; added tags and fusions are not shown. Lines headed by an entry give the natural chain unless they say otherwise; changes in a name come on top.
# UniProt O95398: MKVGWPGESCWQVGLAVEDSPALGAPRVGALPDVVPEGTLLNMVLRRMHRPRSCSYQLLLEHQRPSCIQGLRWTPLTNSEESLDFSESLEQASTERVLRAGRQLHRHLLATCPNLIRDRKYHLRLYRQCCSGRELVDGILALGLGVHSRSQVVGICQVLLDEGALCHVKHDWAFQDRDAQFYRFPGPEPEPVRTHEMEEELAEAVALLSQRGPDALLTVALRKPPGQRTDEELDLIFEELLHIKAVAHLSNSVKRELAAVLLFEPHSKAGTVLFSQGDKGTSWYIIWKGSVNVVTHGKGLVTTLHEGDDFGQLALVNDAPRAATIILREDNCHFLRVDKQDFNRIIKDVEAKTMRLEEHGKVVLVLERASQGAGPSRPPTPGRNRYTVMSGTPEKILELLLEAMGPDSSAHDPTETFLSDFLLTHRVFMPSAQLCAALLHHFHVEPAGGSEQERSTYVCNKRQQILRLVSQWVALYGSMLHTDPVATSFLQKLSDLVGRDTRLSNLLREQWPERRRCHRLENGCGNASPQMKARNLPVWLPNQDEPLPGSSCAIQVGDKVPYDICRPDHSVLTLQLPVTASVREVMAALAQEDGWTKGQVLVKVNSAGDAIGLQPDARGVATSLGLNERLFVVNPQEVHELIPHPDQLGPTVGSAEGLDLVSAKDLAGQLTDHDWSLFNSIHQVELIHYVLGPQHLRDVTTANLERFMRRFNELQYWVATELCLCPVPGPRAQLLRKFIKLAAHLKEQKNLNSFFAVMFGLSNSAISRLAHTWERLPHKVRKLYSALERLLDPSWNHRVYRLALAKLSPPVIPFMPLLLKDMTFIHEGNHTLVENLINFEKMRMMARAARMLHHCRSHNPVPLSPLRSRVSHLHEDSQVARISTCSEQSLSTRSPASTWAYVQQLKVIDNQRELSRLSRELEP
# This is a selection; strong and weak results do not stand in their true shares. Activity calls are given as the source filed them. The call rests on the fitted dose curve; in most records, active means well fitted activation curve with a large enough effect; inconclusive means small, poorly fitted or top-dose-only effect; inactive means no such curve, though single readings can be large or run the other way.
# Target: Rap guanine nucleotide exchange factor 3 (Homo sapiens) (UniProt O95398)
# Experiment: qHTS for Agonist of cAMP-regulated guanine nucleotide exchange factor 3 (EPAC1): primary screen; further: nearly all actives have a fitted effect of over 60% in size
# Settings: biochemical assay, 100% = response to 6.5 mM cAMP; at 154 µM (top of the series)
# Text: In multi-cellular eukaryotic organisms, the effects of cAMP are transduced by two ubiquitously-expressed intracellular cAMP receptors, the classic protein kinase A/cAMP-dependent protein kinase (PKA/cAPK) and the more recently discovered exchange protein directly activated by cAMP/cAMP-regulated guanine nucleotide exchange factor (EPAC/cAMP-GEF). Both PKA and EPAC are ubiquitously expressed in all tissues, and an increase in intracellular cAMP levels will lead to the activation of both PKA and EPAC. Therefore, careful dissections of the individual role and relative contribution of EPAC and PKA within the overall cAMP signaling in various model systems are critical for further elucidating the mechanism of cAMP signaling. To date no EPAC-specific antagonists and agonist, as well as isoform-specific agonists have been reported, and developing EPAC-specific pharmacological probes to determine the physiological functions that EPAC play in the overall cAMP-mediated signaling remains a major challenge within the research field. Furthermore, identified regulators of EPAC may lead to new mechanism-based therapeutic strategies specifically targeting the EPAC / cAMP-signaling components as EPAC has been implicated to play important roles in major human pathological conditions such as diabetes, heart disease, and cancer.
# This qHTS will be used to screen the Molecular Libraries Small Molecule Repository (MLSMR) as a concentration-titration series using the NCGC unique quantitative screening (qHTS) platform to find activators for EPAC1. In addition, this assay will also be used as a counterscreen for the EPAC2 qHTS. This fluorescent based assay is developed and validated for EPAC1 that measures exchange using EPAC effector Rap1 complex with BODIPY-GDP, a GDP analog with a tethered fluorophores. Activators are identified by monitoring the change in fluorescence signal as the exchanged free BODIPY-GDP has a reduced fluorescence compared to Rap1-bound BODIPY-GDP. Increase in signal (activation) is the desired outcome for the EPAC1 agonist while no activity in this assay is desired for the EPAC2 agonist counterscreen.
# [1] de Rooij, J., Zwartkruis, F. J., Verheijen, M. H., Cool, R. H., Nijman, S. M., Wittinghofer, A., and Bos, J.L. (1998) Nature 396, 474-477
# NIH Chemical Genomics Center [NCGC]
# NIH Molecular Libraries Probe Centers Network [MLPCN]
# Assay Submitter (PI): Xiaodong Cheng, The University of Texas Medical Branch
# Briefly, three uL of reagents (100 nM EPAC1, 250 nM RAP1B-BODIPY-GDP, 50 uM GDP) were dispensed into a 1536-well Greiner black solid-bottom medium binding assay plate. Controls and test compounds (23 nL) were transferred to the plate via a Kalypsys pin tool equipped with a 1536-pin array. The plates were centrifuged at 1,000 rpm for 15 seconds followed by 5 minute incubation at room temperature. The assay plates were read at 5 minute intervals for 30 minutes in the ViewLux plate reader using 480nm excitation and 540nm emission filters. The results were normalized to the agonist positive control of 6.5 mM cAMP.
row,Structure (SMILES),activation
1,COc1ccccc1OP(=O)(Nc1ccc(C)cn1)Oc1ccccc1OC,inactive: 5.89%
2,Cc1ccc(OP(=O)(Nc2nccs2)Oc2ccc(C)cc2)cc1,inactive: -1.46%
3,Clc1ccc(Cl)c(NC2=NCC(CBr)S2)c1 (stereo unspecified),inactive: -4.49%
4,CN1CCCC(OC(=O)C(c2ccccc2)c2ccccc2)C1 (stereo unspecified),inactive: 1.86%
5,NC(=O)c1cc([N+](=O)[O-])cc([N+](=O)[O-])c1N,inactive: 0.237%
6,CN(C(=O)Cc1ccc(Cl)c(Cl)c1)[C@H]1CCCC[C@H]1N1CCCC1,inactive: 2.01%
7,Cc1ccc(N/C(=N/P(=O)(N2CCOCC2)N2CCOCC2)N2CCOCC2)cc1,inactive: -0.426%
8,O=[N+]([O-])C1C(O)C(O)C([N+](=O)[O-])C(O)C1O (stereo unspecified),inactive: -13.5%
9,CC(C)CC(=O)NC(Sc1ccc(Cl)cc1)C(Cl)(Cl)Cl (stereo unspecified),inactive: 21.6%
10,Nc1cc(N)c2nonc2c1[N+](=O)[O-],inactive: 3.41%
11,Oc1ccccc1CNc1ccccn1,inactive: 6.96%
12,O=C(NC(Sc1ccncn1)C(Cl)(Cl)Cl)c1ccccc1 (stereo unspecified),inactive: -4.84%
13,CCOP(=O)(Nc1ccccc1)OCC,inactive: -9.95%
14,Cc1cc(SC(NC(=O)c2ccc(F)cc2)C(Cl)(Cl)Cl)ncn1 (stereo unspecified),inactive: -2.02%
15,CN(C(=O)Cc1ccc(Cl)c(Cl)c1)[C@H]1CCCC[C@@H]1N1CCCC1,inactive: 6.68%
16,Cc1ccc(NP(=O)(Oc2ccccc2F)Oc2ccccc2F)nc1,inactive: 9.44%
17,O=C(O)c1ccccc1[As](=O)(O)O,inactive: 5.35%
18,CC(=O)Nc1ccc([As](=O)(O)O)cc1,inactive: -2.05%
19,CCCC1OP(N)(=O)OCC1CC (stereo unspecified),inactive: -0.556%
20,CN(C)P(=O)(N(C)C)n1c(Nc2ccccc2)nnc1-c1ccccc1,inactive: 6.47%
21,O=P(Nc1nc2ccc(Cl)cc2s1)(c1ccccc1)c1ccccc1,inactive: 9.73%
22,CCN(N=Nc1nonc1N)c1nonc1N,inactive: 5.01%
23,Nc1cccc2ccc([As](=O)(O)O)cc12,inactive: -9.95%
24,O=C(Nc1cc([As](=O)(O)O)ccc1O)c1ccccc1,inactive: -1.46%
25,O=P1(N(CCCl)CCCl)OCCCS1 (stereo unspecified),inactive: 9.55%
26,O=[N+]([O-])c1cccc(NC2=NCC(CBr)S2)c1 (stereo unspecified),inactive: 3.32%

row,Structure (SMILES),activation
1,COC(=O)C1(C)COP(=O)(Nc2ccccc2)OC1 (stereo unspecified),inactive: -4.24%
2,O=C(O)CNc1ccc([As](=O)(O)O)cc1,inactive: -2.46%
3,CC(C)(C)C(=O)NC(Sc1ccncn1)C(Cl)(Cl)Cl (stereo unspecified),inactive: -17.1%
4,O=[N+]([O-])c1ncn(CCn2ncnc2[N+](=O)[O-])n1,inactive: 4.65%
5,CC(=O)N1C2C3N(C(C)=O)C1C1N(C(C)=O)C(C(N1C(C)=O)N3C(C)=O)N2C(C)=O,inactive: 13%
6,O=[N+]([O-])c1cccc2n[nH]nc12,inactive: -2.21%
7,Cc1ccc(NP(=O)(Oc2ccccc2)Oc2ccccc2)nc1,inactive: 3.86%
8,O=[N+]([O-])c1cc([N+](=O)[O-])c(CCNc2ccccc2)c([N+](=O)[O-])c1,inactive: -10.2%
9,CCc1nc2c(n1)c1c(non1O)c1c2no[n+]1[O-],inactive: -13.2%
10,COc1ccc(C2=NCC(CBr)S2)cc1 (stereo unspecified),inactive: 8.83%
11,CC(C)=N/N=C(\N)N[N+](=O)[O-],inactive: 11.2%
12,CC(C)c1nc(Nc2ccccc2)n(P(=O)(N(C)C)N(C)C)n1,inactive: -11.3%
13,CN(C)C(=O)OCCc1n(C)cc[n+]1C,inactive: 0.942%
14,c1cc(-c2nn[nH]n2)ccc1-c1nn[nH]n1,inactive: -9.04%
15,CC1CCN(C(=O)Oc2c(Cl)cc(Cl)c3cccnc23)CC1,inactive: 1.38%
16,Nc1ccc([As](=O)(O)c2ccc(N)cc2)cc1,inactive: -2.13%
17,C[N+]1=C2C=CC=CC=C2SC12C([N+](=O)[O-])=CC([N+](=O)[O-])=C[C-]2[N+](=O)[O-] (stereo unspecified),inactive: 8.28%
18,CCN(/C(=N/P(=O)(N1CCOCC1)N1CCOCC1)N1CCOCC1)c1ccc(OC)cc1,inactive: 0.114%
19,c1nnnn1CCn1cnnn1,inactive: 3.89%
20,O=P(Nc1nccs1)(c1ccccc1)c1ccccc1,inactive: -6%
21,CC(C)C(=O)NC(Sc1ccccc1)C(Cl)(Cl)Cl (stereo unspecified),inactive: -4.01%
22,O=P(Nc1nc2ccccc2s1)(c1ccccc1)c1ccccc1,inactive: 7.61%
23,C[C@H]1OP(=O)(Oc2ccccc2)[C@H](O)[C@H](O)[C@H]1N=[N+]=[N-] (stereo partly specified),inactive: -11.7%
24,Nc1ccc(CCCCOc2ccccc2)cc1,inactive: -15.7%
25,COc1ccc(N)c([N+](=O)[O-])c1[N+](=O)[O-],inactive: 4.99%
26,CN(C)C1(CNC(=O)c2ccc(Cl)c(S(N)(=O)=O)c2)CCCCC1,inactive: -0.323%

row,Structure (SMILES),activation
1,O=P(Nc1ccccn1)(c1ccc(Br)cc1)c1ccc(Br)cc1,inactive: -6.17%
2,Nc1ccc([As](=O)(O)c2ccc([N+](=O)[O-])cc2)cc1,inactive: 8.95%
3,C(Cc1nn[nH]n1)Cc1nn[nH]n1,inactive: 14.4%
4,O=C(OC1CN2CCC1CC2)c1cccc(Cl)c1 (stereo unspecified),inactive: -1.16%
5,CC(=O)NC(SC(=S)N(C)C)C(Cl)(Cl)Cl (stereo unspecified),inactive: 0.624%
6,O=[N+]([O-])c1ncn(CCn2cnc([N+](=O)[O-])n2)n1,inactive: -2.37%
7,O=[N+]([O-])c1ccc(O)c(/C=N/Nc2ccc([N+](=O)[O-])cc2[N+](=O)[O-])c1,inactive: 6.76%
8,O=[As](O)(c1ccccc1)c1ccc(O)cc1,inactive: 4.14%
9,O=P1(N(CCCl)CCCl)OCCC2CCCCN21 (stereo unspecified),inactive: -8.35%
10,O=C(NC1CCS(=O)(=O)C1)NP(=S)(Oc1ccccc1)Oc1ccccc1 (stereo unspecified),inactive: -8.4%
11,CCNC(=S)/N=C(\N)N[N+](=O)[O-],inactive: 2.32%
12,c1ccc(-c2nn[nH]n2)c(-c2nn[nH]n2)c1,inactive: -4.64%
13,Cc1ccc(NP(=O)(Oc2cccc(C)c2)Oc2cccc(C)c2)nc1,inactive: -2.12%
14,Cc1ccccc1OP(=O)(Nc1ccccn1)Oc1ccccc1C,inactive: 0.983%
15,CC(NC(=O)COC(=O)C(O)(c1ccccc1)c1ccccc1)c1ccccc1 (stereo unspecified),inactive: -1.62%
16,CN(C)C(=O)Oc1noc2ccccc12,inactive: 10.5%
17,O=c1c2cc([N+](=O)[O-])ccc2[nH]c2c([N+](=O)[O-])cc([N+](=O)[O-])cc12,inactive: 4.06%
18,COC(=O)c1cc2c(s1)N=C(c1ccccc1)N(C)P2(=O)N1CCOCC1 (stereo unspecified),inactive: -2.15%
19,CC(=O)NC(SC(=S)N(CC(C)C)CC(C)C)C(Cl)(Cl)Cl (stereo unspecified),inactive: -8.35%
20,Cc1ccc(OP(=O)(Nc2ccccn2)Oc2ccc(C)cc2)cc1,inactive: -0.086%
21,O=C(OC1CN2CCC1CC2)c1ccccc1 (stereo unspecified),inactive: 3.48%
22,CCC(=O)N1C2C3N(C(=O)CC)C1C1N(C(=O)CC)C(C(N1C(=O)CC)N3C(=O)CC)N2C(=O)CC,inactive: -0.193%
23,CCc1cc(O)c([N+](=O)[O-])c(C)c1[N+](=O)[O-],inactive: -8.6%
24,CC(C)(C)C(=O)NC(Sc1ccccc1)C(Cl)(Cl)Cl (stereo unspecified),inactive: -10.7%
25,O=P1(Nc2nc3ccc(Cl)cc3s2)COc2ccccc2O1 (stereo unspecified),inactive: -4.22%
26,CCOc1ccc(C2=NCC(CBr)S2)cc1 (stereo unspecified),inactive: 4.97%

row,Structure (SMILES),activation
1,CC(=O)Nc1ccc([As](=O)(O)O)c(O)c1,inactive: -1.71%
2,CC(=O)Nc1ccc(Oc2c([N+](=O)[O-])cc([N+](=O)[O-])cc2[N+](=O)[O-])cc1,inactive: -4.06%
3,N#C/C(=C\c1ccc(N(CCBr)CCBr)cc1)C(N)=O,inactive: 3.19%
4,CC(=O)c1ccc(N2CC2c2ccncc2)cc1 (stereo unspecified),inactive: -1.62%
5,COC(=O)C1(C)COP(=O)(NCc2ccccc2)OC1 (stereo unspecified),inactive: 6.03%
6,Cc1ccccc1CN(C)C(=O)COC(=O)C(O)(c1ccccc1)c1ccccc1,inactive: -1.27%
7,C[C@@H]1C=CCP(=O)(Oc2ccccc2)O1 (stereo partly specified),inactive: -3.19%
8,C[C@H]1OP(=O)(Oc2ccccc2)C[C@@H]2O[C@@H]21 (stereo partly specified),inactive: -16.1%
9,O=[As](O)(c1cccc(O)c1)c1cccc(O)c1,inactive: 9.78%
10,Cc1cccc(OCC(=O)OC2CN3CCC2CC3)c1 (stereo unspecified),inactive: 13.1%
11,COc1cc(C(=O)NCC2(N3CCOCC3)CCCCC2)cc(Cl)c1OC(C)C,inactive: 4.04%
12,O=[As](O)(O)c1cccnc1,inactive: 8.98%
13,CS(=O)(=O)c1ccc(Cl)c(NC(=O)COC(=O)C(O)(c2ccccc2)c2ccccc2)c1,inactive: 7.87%
14,O=C(OC1CN2CCC1CC2)c1ccc(Cl)cc1 (stereo unspecified),inactive: -3.13%
15,COc1cc(C2NCCC3(OCCO3)C2(C)C)cc(OC)c1OC (stereo unspecified),inactive: 2.22%
16,CCOP(=O)(Nc1cccc2ccccc12)OCC,inactive: -1.99%
17,CCCOP(=S)(Nc1nc(N)cc(=O)[nH]1)OCCC,inactive: 8.13%
18,Cc1ccc(NCCc2c([N+](=O)[O-])cc([N+](=O)[O-])cc2[N+](=O)[O-])cc1,inactive: -2.6%
19,Nc1cccc2c([As](=O)(O)O)cccc12,inactive: 5.45%
20,O=C(O)COc1ccc([As](=O)(O)O)cc1[N+](=O)[O-],inactive: 8.52%
21,Nc1ccccc1[As](=O)(O)c1ccccc1,inactive: -3.6%
22,CS(=O)(=O)c1cc([N+](=O)[O-])c2no[n+]([O-])c2c1,inactive: 10.1%
23,CCOP1(=S)c2c(C)nn(CCC#N)c2N=C(c2ccccc2F)N1C (stereo unspecified),inactive: 6.42%
